Data taken from article PMC3355094 (PLoS Pathogens, 2012).
Where two headings read alike, the source gives them in different places.

Protein sequences, listed by entry. Tags and fused reporters are not part of them. Residues count along the entry.
UniProt B3GA02, 2-142 limits assumed: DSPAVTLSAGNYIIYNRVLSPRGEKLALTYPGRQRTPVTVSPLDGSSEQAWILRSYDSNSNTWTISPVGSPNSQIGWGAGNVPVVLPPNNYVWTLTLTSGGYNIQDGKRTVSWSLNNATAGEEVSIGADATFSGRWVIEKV

Assays:
CCL2 wild-type [1] = target: T1, CCL2 wild-type (Coprinopsis cinerea, UniProt B3GA02)
CCL2 wild-type [2] = target: T1, CCL2 wild-type; experiment: Isothermal titration calorimetry, carbohydrates binding to CCL2 wild-type

## CO[C@@H]1O[C@H](CO)[C@@H](O[C@@H]2O[C@H](CO)[C@H](O)[C@H](O[C@]3(C(=O)O)C[C@H](O)[C@@H](NC(C)=O)[C@H]([C@H](O)[C@H](O)CO)O3)[C@H]2O)[C@H](O[C@@H]2O[C@@H](C)[C@@H](O)[C@@H](O)[C@@H]2O)[C@H]1NC(C)=O
CCL2 wild-type [1]
  Kd: 162 µM

## Neu5Acα2,3Galβ1,4[Fucα1,3]GlcNAcβ1-OMe
CCL2 wild-type [2]; ITC, 299K, carbohydrate binding to CCL2 wild-type
  Kd: 162 µM
CCL2 wild-type [2]; relative to Lewis^X trisaccharide
  binding better than Lewis^X by a factor: 3
